Compound activity as filed in PubChem.
Rows were chosen to be rich in hits. Some 0.7% of all compounds tested hit in one or more screens of this group.
GIV-Gai inh: blocks GIV peptide binding to rat Galpha-i3. P08753. Galpha-i3/FITC-GIV peptide fluorescence polarization, 90 min; stronger effect = lower value; scaled: aluminum fluoride 0%, vehicle 100%. percent of control (FP), % (test concentration not listed). 0.42% of 210,000 active. AID 1224905;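 active = replicate mean at 85% of control or lower, very high polarization wells dropped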;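 note: wells of about 15 µL received 100 nL stock; the first replicate is given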
HCMV UL50-53 inh: disrupts HCMV UL50-UL53 complex binding; HTRF UL50-UL53 interaction, normalized percent inhibition; inhibition, % (concentration not given with the values); 0.15% of 190,000 active; AID 1918969; in the data active = inhibition above about 27%, passing the limit was not always enough
Sa growth 42C: blocks Staphylococcus aureus growth | 0.53% of 170,000 active | S. aureus RN4220 growth, OD600, 20 h, 42 °C; hits give low values | relative growth, % (test concentration not listed);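 active = relative growth at most 50% at the other temperature and 20+ points below 30 °C, or under 10% at both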
Each line names hits and unclear results; the compound was inactive in the other large screens; ! = a repeat was not active.

CC1=NN(c2ccccc2)C(=O)/C1=C\c1ccccc1OS(=O)(=O)c1ccccc1[N+](=O)[O-]	none (no result: Sa growth 42C)
CCn1c(O)c(C2=c3cc(Cl)ccc3=NC2=O)c2ccccc21	none (no result: GIV-Gai inh)
O=C1N=c2ccccc2=C1c1c(O)[nH]c2ccc(Cl)cc12	Sa growth 42C 48.9
N#C/C(=N/Nc1ccc2c(c1)OCO2)C(=O)N1CCCC1	none
N#CC(C#N)=NNc1ccc2c(c1)OCCO2	Sa growth 42C -0.1 (no result: GIV-Gai inh)
Cc1sc(-c2noc(C3CC3)n2)cc1NC(=O)c1ccsc1	none (no result: Sa growth 42C)
CCOC(=O)C1=C(O)/C(=C/c2ccc(N3CCOCC3)o2)SC1=Nc1ccc(OCC)cc1	GIV-Gai inh -15.0
CCOC(=O)C1=C(O)/C(=C/c2ccc(OCC)cc2)SC1=Nc1ccccc1	none (no result: HCMV UL50-53 inh, Sa growth 42C)
O=C(Cn1c2ncccc2c(=O)n1-c1ccccc1)Nc1cc(F)ccc1F	none (no result: Sa growth 42C)
Cc1ccc(-c2ccnc(-c3ccc(O)cc3)n2)cc1	none (no result: Sa growth 42C)
Cc1ccc(-c2nc(I)ccc2O)cc1	Sa growth 42C 9.1
O=C1/C(=C/c2cccc3ccccc23)Nc2ccccc21	GIV-Gai inh 56.6
COC(=O)C1=C(C)NC(=O)/C1=C\c1cccc2ccccc12	none (no result: HCMV UL50-53 inh)
O=C(Nc1ccc2c(c1)oc1ccccc12)c1cccc(N2C(=O)CCC2=O)c1	none
CCc1cccc(NC(=O)Cn2cc(S(=O)(=O)N3CCCC3)c(S(=O)(=O)N3CCCC3)c2)c1	none
CC(=O)N1CCOc2ccc(CN(C(=O)C(C)C)c3ccc(C)cc3)cc2C1	none (no result: HCMV UL50-53 inh, Sa growth 42C)
COc1ccc(C(=O)Cn2nc(CNc3ccc(Br)cc3)[n+]3c2CCCCC3)cc1	Sa growth 42C 1.4 (no result: GIV-Gai inh)
Cc1nn(CC(=O)c2ccc(Br)cc2)c(N)[n+]1C	none (no result: GIV-Gai inh, Sa growth 42C)
CCOC(=O)c1ccc(Nc2nc3nonc3nc2NCc2ccco2)cc1	none
CCOC(=O)c1ccc(Nc2nc3nonc3nc2Nc2cccc(C)c2C)cc1	Sa growth 42C -1.0
O=C(NCCc1ccccc1)C1=CC=CN2CCS(=O)(=O)N=C12	none (no result: GIV-Gai inh)
CN(C)CCOc1ccc(/C(=C(/CCCl)c2ccccc2)c2ccccc2)cc1	Sa growth 42C 7.1!
CN(C)CCOc1ccc(C(=C(CCCl)c2ccccc2)c2ccccc2)cc1	none (no result: GIV-Gai inh, Sa growth 42C)
CCCCN(CC)c1nc(N)c2c(N)nc(SCC(=O)O)cc2c1C#N	Sa growth 42C 6.2 (no result: GIV-Gai inh)
CCN(CC)c1nc(N)c2c(N)nc3c(c2c1C#N)C(=O)CN3Cc1ccccc1	none (no result: GIV-Gai inh)
COC(=O)C1=C(C)NC2=C(C(=O)CC(c3ccc(OC)c(OC)c3)C2)C1c1cccc(Cl)c1Cl (stereo not drawn)	none (no result: Sa growth 42C)
CC(=O)Nc1nonc1NC1=CC(=O)CC(C)(C)C1	none (no result: GIV-Gai inh)
Cc1ccc2cccc(OC(=O)c3ccccc3F)c2n1	none (no result: GIV-Gai inh, Sa growth 42C)
O=C(Oc1cccc2cccnc12)c1ccccc1F	Sa growth 42C 0.8
CCOC(=O)c1oc2ccccc2c1CO	Sa growth 42C -0.7 (no result: HCMV UL50-53 inh)
CCOC(=O)c1oc2ccccc2c1CN1C(=O)c2ccccc2C1=O	none (no result: GIV-Gai inh)
Cc1cc(O)ccc1Sc1ccc(O)cc1C	Sa growth 42C 30.2 (no result: GIV-Gai inh)
Cc1cc(O)ccc1-n1c(=O)c2cc3c(=O)n(-c4ccc(O)cc4C)c(=O)c3cc2c1=O	none (no result: HCMV UL50-53 inh)
Cc1ccc(NC(=O)c2sc3nc(-c4cc5ccccc5oc4=O)[nH]c(=O)c3c2C)c(C)c1	GIV-Gai inh 25.1
Cc1c(C(=O)Nc2ccccc2)sc2nc(-c3cc4ccccc4oc3=O)[nH]c(=O)c12	none
N#CCN1CCC/C1=C(/C#N)C(=O)c1ccccc1	none
CSCc1nnc(NC(=O)c2ccc(S(=O)(=O)N(C)Cc3ccccc3)cc2)o1	Sa growth 42C 2.4
CCc1nnc(NC(=O)c2ccc(S(=O)(=O)N(C)C)cc2)o1	none
CN(c1ccccc1)S(=O)(=O)c1ccc(C(=O)Nc2nnc(C(F)(F)F)o2)cc1	Sa growth 42C 3.2
CN(c1ccccc1)S(=O)(=O)c1ccc(C(=O)O)cc1	none
C=CCN(CC=C)S(=O)(=O)c1ccc(C(=O)Nc2nnc(COC)o2)cc1	none (no result: HCMV UL50-53 inh)
CCN(Cc1ccccc1)S(=O)(=O)c1ccc(C(=O)Nc2nnc(COC)o2)cc1	Sa growth 42C 5.7 (no result: HCMV UL50-53 inh)
CCN(CC)S(=O)(=O)c1ccc(C(=O)Nc2ncn(Cc3ccccc3)n2)cc1	none
CCCCN(CC)S(=O)(=O)c1ccc(C(=O)Nc2nnc(COC)o2)cc1	Sa growth 42C -0.5
CCOC(=O)c1c(-c2ccccc2)oc2c1cc(OC(=O)c1ccccc1Br)c1ccccc12	none (no result: Sa growth 42C)
O=C(Nc1ccc2c(c1)OCO2)c1cccc(Nc2ncc(-c3ccc(F)cc3)cn2)c1	none (no result: HCMV UL50-53 inh, Sa growth 42C)
COc1ccc(C2=NN(C(=O)CSc3nnc(CNC(=O)c4ccco4)n3C)C(c3cccc(OC)c3OC)C2)cc1 (stereo not drawn)	none (no result: HCMV UL50-53 inh, Sa growth 42C)
CCC(C)c1c(O)nc(SCC(=O)NCc2ccco2)[nH]c1=O (stereo not drawn)	none
O=C(NC(Cc1c[nH]c2ccccc12)C(=O)Nc1ccc(Br)cc1)Oc1ccccc1 (stereo not drawn)	none (no result: HCMV UL50-53 inh, Sa growth 42C)
NC(=O)c1cnc(NC2CCCCC2N)nc1Nc1cccc(-n2nccn2)c1 (stereo not drawn)	none (no result: GIV-Gai inh, Sa growth 42C)
COc1ccc(C(c2ccc3cccnc3c2O)N2CCCC2)cc1 (stereo not drawn)	none (no result: GIV-Gai inh)
Oc1c(C(c2ccncc2)N2CCCC2)ccc2cccnc12 (stereo not drawn)	none (no result: HCMV UL50-53 inh)
Oc1c(C(c2ccc(C(F)(F)F)cc2)N2CCCC2)ccc2cccnc12 (stereo not drawn)	Sa growth 42C 1.1 (no result: GIV-Gai inh)
COc1ccc(C(c2ccc3cccnc3c2O)N2CCOCC2)cc1 (stereo not drawn)	Sa growth 42C 8.8 (no result: HCMV UL50-53 inh)
CCN(Cc1ccncc1)Cn1nc(C(=O)O)c2ccccc21	none (no result: GIV-Gai inh)
CCOc1cc(C2C(C#N)=C(N)Oc3n[nH]c(-c4cccc([N+](=O)[O-])c4)c32)ccc1OC(=O)N1CCOCC1 (stereo not drawn)	none (no result: Sa growth 42C)
CO[C@H](C(=O)[C@@H](O)[C@@H](C)O)[C@@H]1Cc2cc3cc(O[C@H]4C[C@@H](O[C@H]5C[C@@H](O)[C@H](O)[C@@H](C)O5)[C@@H](O)[C@@H](C)O4)c(C)c(O)c3c(O)c2C(=O)[C@H]1O[C@H]1C[C@@H](O[C@H]2C[C@@H](O[C@H]3C[C@](C)(O)[C@H](O)[C@@H](C)O3)[C@H](O)[C@@H](C)O2)[C@H](O)[C@@H](C)O1	Sa growth 42C -0.2
C=CCn1c(SCC(=O)NCc2ccccc2Cl)nc2cc(C(=O)NCc3ccco3)ccc2c1=O	none (no result: HCMV UL50-53 inh, Sa growth 42C)
CCCCCOc1ccc(C(=O)CCN2CCOCC2)cc1	Sa growth 42C 12.7
O=C(CCN1CCOCC1)c1ccc(O)cc1	none
O=C(CCN1CCOCC1)c1ccc(Br)cc1	Sa growth 42C -0.4 (no result: GIV-Gai inh)
CCCCOc1ccc(C(=O)N2CCCCC2CCN2CCOCC2)cc1 (stereo not drawn)	none
Cc1nc(-c2cc(S(=O)(=O)NCc3ccccc3)c(C)s2)sc1C	none (no result: HCMV UL50-53 inh, Sa growth 42C)
O=C(OCc1ccccc1)c1ccc2c(c1)OCO2	none (no result: GIV-Gai inh)
Cc1ccc(C(=O)Nc2ccc(-c3noc(-c4cccc(Cl)c4)n3)cc2)cc1[N+](=O)[O-]	none (no result: HCMV UL50-53 inh, Sa growth 42C)
CCC(C)n1nnc2cc(S(=O)(=O)N3CCC(C(=O)Nc4ccc(OC)cc4)CC3)ccc21 (stereo not drawn)	none (no result: Sa growth 42C)
O=C1C(c2sc3ccccc3c2O)=Nc2ccccc21	none (no result: Sa growth 42C)
O=C1c2ccccc2C(=O)c2sccc21	Sa growth 42C 1.6
O=C1c2ccccc2C(=O)c2c1cccc2-c1cccc2c1C(=O)c1ccccc1C2=O	none (no result: Sa growth 42C)
CCSc1nccn2nc(-c3ccc(Br)cc3)cc12	none (no result: Sa growth 42C)
CCNC(=O)/N=C1\NC(=O)C(C(C)C)O1 (stereo not drawn)	none (no result: GIV-Gai inh)
